Data set [1] in a line: Open label pharmacokinetic study GW01-0804: serum pharmacokinetics. As to conditions: both, human, in vivo; for concentration at 21 day (trough, pre-application): Geometric LS Mean, Secondary steady-state analysis (BLQ replaced with LLOQ/2), N 15.
For data set [2] the following is noted: cell culture; cited from earlier work.
For data set [3] the following is noted: rats. How it is done:
A combined fertility and peri- and post-natal development study was conducted in rats.

Consider `CC(C)Cn1cnc2c(N)nc3ccccc3c21` [Imiquimod (R-837)], for which the Tmax (in general, the time at which the peak concentration occurs) in data set [1] amounted to 12 h.

Consider `CC(C)Cn1cnc2c(N)nc3ccccc3c21` [imiquimod, 1-(2-methylpropyl)-1H-imidazo[4,5-c]quinolin-4-amine], for which the Direct antiviral activity result in data set [2] is “no direct antiviral activity”. Further, the concentration at 21 day (trough, pre-application) amounted to 0.113 ng/mL in data set [1] (Reference (trough serum concentration), Day 22 vs. Day 21) and 0.113 ng/mL in data set [1] (Test (trough serum concentration), Day 21 vs. Day 14). Besides, the “Growth, fertility or reproduction” value in data set [3] (daily oral, doses up to 57×MRHD based on AUC) is on record as “no effects”. Further, the “Growth, fertility, reproduction or post-natal development” value in data set [3] (oral, up to 6 mg/kg/day (50×MRHD based on AUC)) is “No effects”.

The values are drawn from US10238645B2 (priority 2009, dated 2019).
